Measured values: PMC5130624 (International journal for parasitology, 2016)

System: recombinant SnCDPK1
Assay: Recombinant SnCDPK1 thermal shift assay
Format: binding, Sarcocystis neurona
Details: 20 µM BKI, 5% DMSO; change in Tm vs DMSO control

## CCOc1ccc2cc(-c3nn(CC4CCN(C)CC4)c4ncnc(N)c34)ccc2c1 [compound 1294]
  Recombinant SnCDPK1 Thermal Shift (°C) at 20 µM: 9.9 °C
